From US20240425457A1, “COMPOSITIONS AND METHODS FOR SUPPRESSING AND/OR TREATING METABOLIC DISEASES AND/OR A CLINICAL CONDITION THEREOF” (CK Biotech Inc., priority 2018, published 2024)

Test system: Wnt/β-catenin signaling
Assay: Wnt/β-catenin signaling (TOPFlash) reporter luciferase assay in HEK293-TOP cells
Assay type: cell-based
Method: Luciferase reporter assay. HEK293-TOP cells were seeded in 24-well plates. Cells were treated with A3334 at a concentration of 1, 5, and 10 μM for 24 h. Total cell lysates were extracted with 35 μl of 5× Reporter Lysis Buffer per well according to the manufacturer's instructions (Promega). A total of 35 μl of luciferin was added and luciferase activity was measured using a Fluorstar Optima microplate reader.
Wnt/β-catenin signaling reporter luciferase assay. HEK293-TOP cells were seeded were seeded in 96-well plates at a density of 2.5×10^4 cells per well. Cells were treated with individual chemicals at a concentration of 1, 5, 10 µM for 24 h. Total cell lysates were extracted with 25 µl of 5× Reporter Lysis Buffer per well according to the manufacturer's instruction (Promega, Madison, WI). Luciferin (25 µl) was added and luciferase activity was measured using FLUOSTAR (BMG labtech, Offenburg, Germany).

SMILES: O=C1Nc2cc(Br)ccc2/C1=C1/Nc2ccccc2/C1=N\O [Compound 8, 6-bromoindirubine-3′-oxime]
- Wnt/β-catenin (TOPFlash) reporter activity: showed effectiveness in the activation of Wnt/β-catenin pathway
